The text below walks through data of patent US20080280910A1, “PHTHALAZINONE DERIVATIVES” (priority 2007, published 2008).

By UniProt entry, the sequences of proteins in these tests, tags left out.
UniProt P09874, whole entry: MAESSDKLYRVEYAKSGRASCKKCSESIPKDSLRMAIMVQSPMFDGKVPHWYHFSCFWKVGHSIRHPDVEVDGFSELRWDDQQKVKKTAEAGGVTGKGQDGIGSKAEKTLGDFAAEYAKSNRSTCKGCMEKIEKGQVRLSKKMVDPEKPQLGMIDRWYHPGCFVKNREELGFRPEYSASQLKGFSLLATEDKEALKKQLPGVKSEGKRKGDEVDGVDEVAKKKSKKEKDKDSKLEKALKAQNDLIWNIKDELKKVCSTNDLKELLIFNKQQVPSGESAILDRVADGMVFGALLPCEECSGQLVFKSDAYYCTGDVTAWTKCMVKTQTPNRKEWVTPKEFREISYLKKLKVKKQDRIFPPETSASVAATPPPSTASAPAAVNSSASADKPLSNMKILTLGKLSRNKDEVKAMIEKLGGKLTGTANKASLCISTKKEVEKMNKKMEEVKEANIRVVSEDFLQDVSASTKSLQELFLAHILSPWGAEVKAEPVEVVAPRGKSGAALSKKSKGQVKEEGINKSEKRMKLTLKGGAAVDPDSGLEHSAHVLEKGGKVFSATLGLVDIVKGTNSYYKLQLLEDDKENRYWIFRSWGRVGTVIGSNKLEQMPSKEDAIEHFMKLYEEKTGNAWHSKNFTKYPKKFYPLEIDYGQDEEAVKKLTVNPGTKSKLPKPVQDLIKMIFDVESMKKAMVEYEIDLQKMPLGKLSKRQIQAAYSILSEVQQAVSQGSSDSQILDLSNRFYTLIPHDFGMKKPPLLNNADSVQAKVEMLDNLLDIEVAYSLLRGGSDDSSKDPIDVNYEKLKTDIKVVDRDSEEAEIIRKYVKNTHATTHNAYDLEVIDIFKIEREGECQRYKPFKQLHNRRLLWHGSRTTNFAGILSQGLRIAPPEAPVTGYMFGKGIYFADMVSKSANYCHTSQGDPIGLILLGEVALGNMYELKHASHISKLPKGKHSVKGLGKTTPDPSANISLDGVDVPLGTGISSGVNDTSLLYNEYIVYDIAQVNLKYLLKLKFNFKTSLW

The test has as its target Mammalian PARP, isolated from Hela cell nuclear extract (Homo sapiens, UniProt P09874). In words: PARP inhibition assay (FlashPlate, 3H-NAD incorporation) to determine IC50. To be noted: mean IC50. The protocol:
In order to assess the inhibitory action of the compounds, the following assay was used to determine IC50 values (Dillon, et al., JBS., 8(3), 347-352 (2003)).
Mammalian PARP, isolated from Hela cell nuclear extract, was incubated with Z-buffer (25 mM Hepes (Sigma); 12.5 mM MgCl2 (Sigma); 50 mM KCl (Sigma); 1 mM DTT (Sigma); 10% Glycerol (Sigma) 0.001% NP-40 (Sigma); pH 7.4) in 96 well FlashPlates (TRADE MARK) (NEN, UK) and varying concentrations of said inhibitors added. All compounds were diluted in DMSO and gave final assay concentrations of between 10 and 0.01 μM, with the DMSO being at a final concentration of 1% per well. The total assay volume per well was 40 μL.
After 10 minutes incubation at 30° C. the reactions were initiated by the addition of a 10 μl reaction mixture, containing NAD (5 μM), ^3H-NAD and 30mer double stranded DNA-oligos. Designated positive and negative reaction wells were done in combination with compound wells (unknowns) in order to calculate % enzyme activities. The plates were then shaken for 2 minutes and incubated at 30° C. for 45 minutes.
Following the incubation, the reactions were quenched by the addition of 50 μl 30% acetic acid to each well. The plates were then shaken for 1 hour at room temperature.
The plates were transferred to a TopCount NXT (TRADE MARK) (Packard, UK) for scintillation counting. Values recorded are counts per minute (cpm) following a 30 second counting of each well.
The % enzyme activity for each compound is then calculated using the following equation: […]
IC50 values (the concentration at which 50% of the enzyme activity is inhibited) were calculated, which are determined over a range of different concentrations, normally from 10 μM down to 0.001 μM. Such IC50 values are used as comparative values to identify increased compound potencies.

For `O=C(Cn1cnnn1)Nc1ccc(-c2cc(Cc3n[nH]c(=O)c4ccccc34)ccc2F)cc1`, the IC50 (usually the midpoint of a concentration-inhibition curve) amounted to 236 nM.

Consider `O=c1[nH]nc(Cc2cccc(-c3cccs3)c2)c2ccccc12`, for which the half-inhibitory concentration (IC50) amounted to 82 nM.

Regarding `NCCN1CCN(C(=O)c2ccc(-c3cc(Cc4n[nH]c(=O)c5ccccc45)ccc3F)cc2)C1=O`, the concentration for half-maximal inhibition (IC50) came out at 904 nM.

As to `O=C(Cn1cnnn1)Nc1cccc(-c2cc(Cc3n[nH]c(=O)c4ccccc34)ccc2F)c1`, the IC50 turned out to be 56 nM.
